Reference: patent US7247704 (ARRIVA PHARMACEUTICALS, dated 2007)

Molecular target: T1, Porcine Pancreatic Elastase (porcine, UniProt P00772 27-266)
T1 sequence (looked up): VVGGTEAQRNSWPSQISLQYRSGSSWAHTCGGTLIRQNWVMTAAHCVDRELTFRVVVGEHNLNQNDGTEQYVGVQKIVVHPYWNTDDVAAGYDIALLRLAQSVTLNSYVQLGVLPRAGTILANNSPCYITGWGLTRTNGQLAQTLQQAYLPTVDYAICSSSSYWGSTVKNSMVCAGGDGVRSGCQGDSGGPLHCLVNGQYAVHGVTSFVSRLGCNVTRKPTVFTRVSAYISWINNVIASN
Test: cell-based or functional assay

specific anti-elastase activity, fold over AAT (Difco medium): 2 fold
specific anti-elastase activity, fold over AAT (Red Star medium): 1.9 fold
B1: SLAPI (SLPI/AAT fusion protein) (other)
chain: MSGKSFKAGVCPPKKSAQCLRYKKPECQSDWQCPGKKRCCPDTCGIKCLDPVDTPNPTRRKPGKCPVTYGQCLMLNPPNFCEMDGQCKRDLKCCMGMCGKSCVSPVKAMEDPQGDAAQKTDTSHHDQDHPTFNKITPNLAEFAFSLYRQLAHQSNSTNIFFSPVSIATAFAMLSLGTKADTHDEILEGLNFNLTEIPEAQIHEGFQELLRTLNQPDSQLQLTTGNGLFLSEGLKLVDKFLEDVKKLYHSEAFTVNFGDTEEAKKQINDYVEKGTQGKIVDLVKELDRDTVFALVNYIFFKGKWERPFEVKDTEEEDFHVDQVTTVKVPMMKRLGMFNIQHCKKLSSWVLLMKYLGNATAIFFLPDEGKLQHLENELTHDIITKFLENEDRRSASLHLPKLSITGTYDLKSVLGQLGITKVFSNGADLSGVTEEAPLKLSKAVHKAVLTIDEKGTEAAGAMFLEAIPMSIPPEVKFNKPFVFLMIEQNTKSPLFMGKVVNPTQK
